The results in this text go back to PubChem BioAssay AID1508611 (The Scripps Research Institute Molecular Screening Center, 2020).

Chains of the proteins cited; added tags and fusions are not shown.
UniProt Q8TDV5, whole entry: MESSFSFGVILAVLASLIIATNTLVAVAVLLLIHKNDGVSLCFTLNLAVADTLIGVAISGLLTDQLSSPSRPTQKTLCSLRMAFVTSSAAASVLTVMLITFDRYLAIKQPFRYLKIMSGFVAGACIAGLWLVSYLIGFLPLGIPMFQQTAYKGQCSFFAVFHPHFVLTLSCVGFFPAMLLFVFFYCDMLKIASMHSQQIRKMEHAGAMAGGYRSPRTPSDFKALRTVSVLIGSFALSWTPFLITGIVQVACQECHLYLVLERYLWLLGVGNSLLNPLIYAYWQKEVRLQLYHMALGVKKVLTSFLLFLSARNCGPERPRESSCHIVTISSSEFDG

Molecules are shown by their SMILES. This is a selection; strong and weak results do not stand in their true shares. Activity calls are given as the source filed them.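 Rule for the calls: active = mean percent activation in the counterscreen above 29.09%; inactive = the rest.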

For the experiment, the target named is Glucose-dependent insulinotropic receptor (Homo sapiens) (UniProt Q8TDV5). Description: off-target GPR119 activation – cell-based, PathHunter beta-arrestin, luminescence, triplicate, counter-screen for GPR151 activator project (AID 1508611). The settings on record: GPR119 PathHunter beta-arrestin cells, 90 min, at 11.2 µM, stronger effect = higher value, 0 = compound-well median, 100 = enzyme-acceptor control. For orientation: A counterscreen serves to expose hits that act by an unwanted route or on another target.
On to `CP(=O)(O)Oc1cccc(Cl)c1Cl`, for which the activation is inactive: 7.09%.
With `CP(=O)(Nc1ccccn1)Oc1ccc(Cl)cc1` (configuration not stated), the activation was inactive: 6.14%.
